The values below are quoted from earlier work in US9732053B2, “1-[2-(2,4-dimethylphenylsulfanyl) phenyl]piperazine acetate in crystalline form” (LEK PHARMACEUTICALS D.D., priority 2013, dated 2017).

The conditions of the data set: room temperature; data from WO 2007/144005 A1 and WO 2010/121621 A1; cited from earlier work.
As for D-(−)-tartrate, the Aqueous solubility result is on record as “≈0.4 mg base/mL”. For L-(+)-tartrate, the Aqueous solubility entry is recorded as “≈0.4 mg base/mL”. Turning to meso-tartrate, the Aqueous solubility entry is “≈0.7 mg base/mL”.
